Experimental data: patent publication US10034861B2 (priority 2016, dated 2018)
pIC50: −log10 of the molar value.

Protein sequences, listed by entry. Tags and fused reporters are not part of them. Lines headed by an entry give the natural chain unless they say otherwise; changes in a name come on top.
UniProt Q01064: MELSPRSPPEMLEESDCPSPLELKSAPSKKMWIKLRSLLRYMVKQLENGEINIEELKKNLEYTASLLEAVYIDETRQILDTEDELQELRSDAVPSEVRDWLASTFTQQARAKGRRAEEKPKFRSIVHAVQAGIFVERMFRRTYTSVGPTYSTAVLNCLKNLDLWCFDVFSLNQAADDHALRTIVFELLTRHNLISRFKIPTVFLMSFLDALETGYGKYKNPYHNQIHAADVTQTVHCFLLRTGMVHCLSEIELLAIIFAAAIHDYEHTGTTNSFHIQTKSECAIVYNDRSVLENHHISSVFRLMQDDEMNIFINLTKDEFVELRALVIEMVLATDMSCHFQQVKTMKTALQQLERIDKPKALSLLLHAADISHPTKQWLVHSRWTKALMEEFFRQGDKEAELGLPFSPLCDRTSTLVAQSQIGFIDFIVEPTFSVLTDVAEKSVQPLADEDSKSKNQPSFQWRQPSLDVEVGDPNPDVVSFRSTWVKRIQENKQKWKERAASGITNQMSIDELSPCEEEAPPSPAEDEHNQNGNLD
UniProt Q14123, whole entry: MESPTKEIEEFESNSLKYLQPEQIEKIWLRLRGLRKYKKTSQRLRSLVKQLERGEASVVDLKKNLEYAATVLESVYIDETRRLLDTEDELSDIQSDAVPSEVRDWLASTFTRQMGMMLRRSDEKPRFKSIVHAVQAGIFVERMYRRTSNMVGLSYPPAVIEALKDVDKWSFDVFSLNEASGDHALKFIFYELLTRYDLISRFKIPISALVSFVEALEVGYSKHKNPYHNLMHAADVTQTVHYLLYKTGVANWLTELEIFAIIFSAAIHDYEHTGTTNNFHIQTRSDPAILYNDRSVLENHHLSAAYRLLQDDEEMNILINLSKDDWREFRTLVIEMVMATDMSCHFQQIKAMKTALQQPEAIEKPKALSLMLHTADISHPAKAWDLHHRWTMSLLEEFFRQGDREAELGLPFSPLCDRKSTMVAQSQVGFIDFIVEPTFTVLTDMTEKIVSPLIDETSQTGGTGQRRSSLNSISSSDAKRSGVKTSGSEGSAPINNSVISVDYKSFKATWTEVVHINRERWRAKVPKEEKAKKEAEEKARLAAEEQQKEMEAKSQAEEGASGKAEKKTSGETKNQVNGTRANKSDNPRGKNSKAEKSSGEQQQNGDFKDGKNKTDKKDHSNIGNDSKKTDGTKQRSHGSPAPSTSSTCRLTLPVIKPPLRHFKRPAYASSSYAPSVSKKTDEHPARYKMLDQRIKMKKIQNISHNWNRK

Target: PDE1B (Homo sapiens (Human), UniProt Q01064)
Assay: PDE1 inhibition assay (PDE1B)
Format: biochemical
Conditions: 15 nM tritium labelled cAMP, 1 hr at room temperature, SPA beads; read-out: PDE1B, IC50
Excerpt: (§1) Table 1 lists the IC50 value for inhibition of PDE1 by the compounds of the invention. […] PDE1 assays are described in the Experimental Section.

SMILES	pIC50
CCOc1ncccc1-c1cc(NCc2nnn(C)n2)c2c(n1)c(C)nn2C(C)C [Example 8, 5-(2-ethoxy-3-pyridyl)-1-isopropyl-3-methyl-N-[(2-methyltetrazol-5-yl)methyl]pyrazolo[4,3-b]pyridin-7-amine]	9.47
CCOc1ncccc1-c1cc(NCc2cnn(C)c2)c2c(n1)c(C)nn2C(C)C [Example 9, 5-(2-ethoxypyridin-3-yl)-1-isopropyl-3-methyl-N-((1-methyl-1H-pyrazol-4-yl)methyl)-1H-pyrazolo[4,3-b]pyridin-7-amine]	9.31
CCOc1ncccc1-c1cc(OCc2cnc(C)o2)c2c(n1)c(C)nn2C(C)C [Example 72, 5-[[5-(2-ethoxy-3-pyridyl)-1-isopropyl-3-methyl-pyrazolo[4,3-b]pyridin-7-yl]oxymethyl]-2-methyl-oxazole]	8.62
CCOc1ncccc1-c1cc(NCc2cc(C)no2)c2c(cnn2C(C)C)n1 [Example 42, 5-(2-ethoxy-3-pyridyl)-1-isopropyl-N-[(3-methylisoxazol-5-yl)methyl]pyrazolo[4,3-b]pyridin-7-amine]	8.24
CCOc1ncccc1-c1cc(NCc2csc(C)n2)c2c(n1)c(C)nn2C(C)C [Example 11, 5-(2-ethoxy-3-pyridyl)-1-isopropyl-3-methyl-N-[(2-methylthiazol-4-yl)methyl]pyrazolo[4,3-b]pyridin-7-amine]	9.14
CCOc1ncccc1-c1cc(NCc2noc(C)n2)c2c(cnn2C(C)C)n1 [Example 43, 5-(2-ethoxy-3-pyridyl)-1-isopropyl-N-[(5-methyl-1,2,4-oxadiazol-3-yl)methyl]pyrazolo[4,3-b]pyridin-7-amine]	8.62
Cc1nn(C(C)C)c2c(NCc3cccnc3C(F)(F)F)cc(-c3ccc[nH]c3=O)nc12 [Example 193, 3-[1-isopropyl-3-methyl-7-[[2-(trifluoromethyl)-3-pyridyl]methylamino]pyrazolo[4,3-b]pyridin-5-yl]-1H-pyridin-2-one]	7.27
CCOc1ncccc1-c1cc(NCc2ncn(C)n2)c2c(n1)c(C)nn2C(C)C [Example 31, 5-(2-ethoxy-3-pyridyl)-1-isopropyl-3-methyl-N-[(1-methyl-1,2,4-triazol-3-yl)methyl]pyrazolo[4,3-b]pyridin-7-amine]	9.96
CCOc1ncccc1-c1cc(NCc2ncccn2)c2c(n1)c(C)nn2C(C)C [Example 74, 5-(2-ethoxy-3-pyridyl)-1-isopropyl-3-methyl-N-(pyrimidin-2-ylmethyl)pyrazolo[4,3-b]pyridin-7-amine]	9.47
CCOc1ncccc1-c1cc(NCc2nccc(C)n2)c2c(n1)c(C)nn2C(C)C [Example 75, 5-(2-ethoxy-3-pyridyl)-1-isopropyl-3-methyl-N-[(4-methylpyrimidin-2-yl)methyl]pyrazolo[4,3-b]pyridin-7-amine]	9.09
CCCOc1ncccc1-c1cc(NCc2cn[nH]c2)c2c(n1)c(C)nn2C(C)C [Example 196, 1-isopropyl-3-methyl-5-(2-propoxy-3-pyridyl)-N-(1H-pyrazol-4-ylmethyl)pyrazolo[4,3-b]pyridin-7-amine]	8.77
CCOc1ncccc1-c1cc(NCc2cc(C)n(C)n2)c2c(cnn2C(C)C)n1 [Example 44, N-[(1,5-dimethylpyrazol-3-yl)methyl]-5-(2-ethoxy-3-pyridyl)-1-isopropyl-pyrazolo[4,3-b]pyridin-7-amine]	8.85
CCOc1ncccc1-c1cc(NCc2cc(C)no2)c2c(n1)c(C)nn2C(C)C [Example 10, 5-(2-ethoxy-3-pyridyl)-1-isopropyl-3-methyl-N-[(3-methylisoxazol-5-yl)methyl]pyrazolo[4,3-b]pyridin-7-amine]	9.33
Cc1coc(-c2cc(NCc3cnn(C)c3)c3c(n2)c(C)nn3C(C)C)n1 [Example 202, 1-isopropyl-3-methyl-N-((1-methyl-1H-pyrazol-4-yl)methyl)-5-(4-methyloxazol-2-yl)-1H-pyrazolo[4,3-b]pyridin-7-amine]	7.85
CCOc1ncccc1-c1cc(NCc2ccncn2)c2c(n1)c(C)nn2C(C)C [Example 73, 5-(2-ethoxy-3-pyridyl)-1-isopropyl-3-methyl-N-(pyrimidin-4-ylmethyl)pyrazolo[4,3-b]pyridin-7-amine]	8.04

Same assay, conditions: PDE1B, IC50 (nM), 15 nM tritium labelled cAMP, 1 hr at room temperature, SPA beads

SMILES	IC50 [nM]
CCCOc1ncccc1-c1cc(NCc2cc[nH]n2)c2c(n1)c(C)nn2C(C)CC (single isomer, unassigned) [Example 135, 3-methyl-1-[1-methylpropyl]-5-(2-propoxy-3-pyridyl)-N-(1H-pyrazol-3-ylmethyl)pyrazolo[4,3-b]pyridin-7-amine]	0.095

Target: PDE1C (Homo sapiens (Human), UniProt Q14123)
Assay: not given
Format: biochemical
Conditions: 15 nM tritium labelled cAMP, 1 hr at room temperature, SPA beads
Excerpt: as §1

SMILES	pIC50
CCOc1ncccc1-c1cc(NCc2nc(C)co2)c2c(n1)c(C)nn2C(C)C [Example 50, 5-(2-ethoxypyridin-3-yl)-1-isopropyl-3-methyl-N-((4-methyloxazol-2-yl)methyl)-1H-pyrazolo[4,3-b]pyridin-7-amine 2,2,2-trifluoroacetate]	7.80
Cc1sccc1-c1cc(NCc2cnn(C)c2)c2c(n1)c(C)nn2C(C)C [Example 65, 1-isopropyl-3-methyl-N-[(1-methylpyrazol-4-yl)methyl]-5-(2-methyl-3-thienyl)pyrazolo[4,3-b]pyridin-7-amine]	7.80
